Reference: PubChem BioAssay AID1778 (Sanford-Burnham Center for Chemical Genomics, 2009)
This is one part of the list. Measured potencies and affinities stand elsewhere. The source made the active and inactive calls. Rule as the data show it: active = inhibition above about 50%; inactive = the rest.

Sequences of proteins named here, by UniProt entry; tags and fusion partners are left off. A change or cut given only in a name is not applied to a line headed by its entry.
UniProt P41145: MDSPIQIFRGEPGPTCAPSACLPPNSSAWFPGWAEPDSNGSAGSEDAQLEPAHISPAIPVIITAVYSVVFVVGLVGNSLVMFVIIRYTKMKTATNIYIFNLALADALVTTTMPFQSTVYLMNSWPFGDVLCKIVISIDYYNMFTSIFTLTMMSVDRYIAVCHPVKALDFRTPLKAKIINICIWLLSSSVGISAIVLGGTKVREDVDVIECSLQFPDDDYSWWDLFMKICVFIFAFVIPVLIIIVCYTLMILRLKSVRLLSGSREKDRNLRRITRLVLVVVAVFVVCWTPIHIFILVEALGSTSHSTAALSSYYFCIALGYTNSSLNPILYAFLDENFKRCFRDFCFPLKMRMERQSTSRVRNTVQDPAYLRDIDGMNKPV

target: Kappa-type opioid receptor (Homo sapiens) (UniProt P41145); assay: KOR antagonists, beta-arrestin recruitment, cell-based, luminescence, uHTS (AID 1778); conditions: antagonist mode, at 10 µM, active compounds read high

| SMILES | inhibition |
| --- | --- |
| O=C(Cn1c(CO)nc2ccccc21)NCCc1ccc(F)cc1 | inactive: 11.6% |
| CC(C)[C@H](NC(=O)N1CCn2c1nc1ccccc12)C(=O)NCC1CCCO1 (some centres not stated) | inactive: -34.5% |
| O=C(NC(Sc1ccncn1)C(Cl)(Cl)Cl)c1ccccc1 (configuration not stated) | inactive: 37.2% |
| CCCCCCNCCn1cnc2c(N)ncnc21 | inactive: -8.6% |
| CCc1cccc(CC)c1NC(=O)Cn1c(-c2ccccc2Cl)nc2ccccc21 | inactive: -10.1% |
| COCCCNC(=O)CC1C(=O)N(Cc2ccccc2)C(C)c2nc3ccccc3n21 (configuration not stated) | inactive: 12.3% |
| Cc1ccccc1C(=O)Nc1cccc(NC(=O)Cn2cnc3c(=O)n(C)c(=O)n(C)c32)c1 | inactive: -34.4% |
| N=c1n(CCOc2ccccc2)c2ccccc2n1CCN1CCOCC1 | inactive: 0.1% |
| CC(C)CC(=O)NC(Sc1ccc(Cl)cc1)C(Cl)(Cl)Cl (configuration not stated) | inactive: -15% |
| CSCC[C@H](NC(=O)N1CCn2c1nc1ccccc12)C(=O)NCc1ccc(C)cc1 | inactive: -22.2% |
| O=C(Nc1nc2ccccc2n1CCN1CCOCC1)c1ccc(Cl)cc1 | inactive: 11% |
| Nc1cc(N)c2nonc2c1[N+](=O)[O-] | inactive: 24.1% |
| COc1cccc(/C=N/NC(=O)Cn2cnc3c2c(=O)n(C)c(=O)n3C)c1OC | inactive: 19.4% |
| CCC(=O)Nc1ccc2c(c1)nc1n2CCN(CCOC)C1 | inactive: 17.1% |
| CCCCNc1nc2ccccc2n1CC(=O)N1CCc2ccccc2C1 | inactive: 29.1% |
| C=CCOC(=O)C1=C(C)N=C2SCCC(=O)N2C1/C=C/c1ccccc1OC (configuration not stated) | inactive: -20.1% |
| O=C1Cn2c(nc3ccccc32)N1c1ccccc1F | inactive: 12.3% |
| N=c1n(CCCOc2ccc(F)cc2)c2ccccc2n1CC(N)=O | inactive: 13.5% |
| Cc1n[nH]c(C)c1CCC(=O)N/N=C/C=C/c1ccccc1 | inactive: 11.6% |
| CCCn1c(=O)[nH]c(=O)c2c1nc(-c1ccccc1)n2CCN1CCOCC1 | inactive: -19.5% |
| CCCCC(=O)N/N=C(C)/C=C/c1ccccc1F | inactive: -13.5% |
| CCOc1ccc(C(O)Cn2c(=N)n(CCN3CCCCC3)c3ccccc32)cc1 (configuration not stated) | inactive: -23.1% |
| Cn1c(=O)c2ncn(CC(=O)NCCC3=CCCCC3)c2n(C)c1=O | inactive: -11.8% |
| Cc1nc2ccc(NC(=O)Cn3cnc4c3c(=O)n(C)c(=O)n4C)cc2s1 | inactive: 10.1% |

| SMILES | inhibition |
| --- | --- |
| CC1CCCC(C)N1C(=O)Cn1c(SCC(=O)NCc2ccc3c(c2)OCO3)nc2ccccc21 (configuration not stated) | inactive: -5.2% |
| O=C(Cn1c(-c2cscn2)nc2ccccc21)Nc1ccc(Cl)cc1 | inactive: -31.5% |
| N#CCC(=O)N/N=C\c1cc(Br)ccc1OC/C=C/c1ccccc1 | inactive: 3.7% |
| Cc1ccc(SCc2nc3ccccc3n2CC(=O)Nc2ccccc2)cc1 | inactive: -8.2% |
| Cc1ccc2c(c1)C1CN(C)CCC1N2S(=O)(=O)c1ccc(Oc2ccc([N+](=O)[O-])cc2)cc1 (configuration not stated) | inactive: -25.9% |
| Cc1cc(NC(=O)CSc2nc3ccccc3n2CC(=O)N2CC(C)CC(C)C2)no1 (configuration not stated) | inactive: 16.6% |
| CCOC(=O)CSc1nc2ccccc2n1CC(=O)N1CCN(c2ccccc2)CC1 | inactive: -25.6% |
| c1ccc(CN2CCC3(CC2)Nc2ccccc2CO3)cc1 | inactive: -13.7% |
| Cn1c(=O)c2c(ncn2CC(=O)N2CCN(c3ccccc3F)CC2)n(C)c1=O | inactive: -2% |
| N=c1n(CCN2CCCCC2)c2ccccc2n1CC(O)c1ccco1 (configuration not stated) | inactive: 20% |
| O=C(Cn1c(NCCO)nc2ccccc21)N1CCN(Cc2ccccc2)CC1 | inactive: 4.9% |
| Cn1c(=O)c2c(ncn2CC(=O)Nc2ccccc2)n(C)c1=O | inactive: -10.5% |
| Nc1ccccc1CNc1nc(NCCO)nc2c1ncn2CCN1CCOCC1 | inactive: 18.9% |
| CCC(C)[C@H](NC(=O)N1CCn2c1nc1ccccc12)C(=O)NCCc1ccccc1 (some centres not stated) | inactive: -3.7% |
| O=C(NC1CCCCC1)N1CCC(n2c(=O)[nH]c3ccccc32)CC1 | inactive: -1.8% |
| Cn1c(=O)c2c(nc(Sc3nc4ccccc4n3CC(=O)N3CCCCC3)n2C)n(C)c1=O | inactive: -23% |
| COc1ccc(C2=NCC(CBr)S2)cc1 (configuration not stated) | inactive: 1.5% |
| CCN(CC)CCn1c(=N)n(CCO)c2ccccc21 | inactive: 40% |
| Cn1c(=O)c2c(ncn2CC(=O)N/N=C/c2ccco2)n(C)c1=O | inactive: -2.6% |
| CC(=O)N1CCc2cc(S(=O)(=O)NC(CC(C)C)C(=O)N3CCn4c3nc3ccccc34)ccc21 (configuration not stated) | inactive: 22.9% |
| Cc1ccc(NP(=O)(Oc2ccccc2)Oc2ccccc2)nc1 | inactive: -12.6% |
| O=[N+]([O-])c1ccc(NC2CCN(Cc3ccccc3)CC2)c([N+](=O)[O-])c1 | inactive: 27.3% |
| CC1CC(C)CN(C(=O)Cn2c(-c3nonc3N)nc3ccccc32)C1 (configuration not stated) | inactive: 14.1% |
